Amino acid sequences for entries named in this document (tags omitted). Residues count along the entry.
UniProt P48735, 40-452 R140Q: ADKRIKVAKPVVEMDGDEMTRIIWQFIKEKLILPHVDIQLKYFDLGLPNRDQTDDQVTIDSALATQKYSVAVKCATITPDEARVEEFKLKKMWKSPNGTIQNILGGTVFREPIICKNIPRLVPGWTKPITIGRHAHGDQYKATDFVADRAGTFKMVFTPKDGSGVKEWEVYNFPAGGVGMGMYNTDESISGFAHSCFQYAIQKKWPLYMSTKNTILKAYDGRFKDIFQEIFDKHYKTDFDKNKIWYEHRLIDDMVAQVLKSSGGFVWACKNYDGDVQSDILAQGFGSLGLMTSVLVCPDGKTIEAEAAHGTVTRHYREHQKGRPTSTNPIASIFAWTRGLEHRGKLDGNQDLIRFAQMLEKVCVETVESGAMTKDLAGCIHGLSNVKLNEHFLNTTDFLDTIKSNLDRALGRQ

According to patent US10202339B2, “Therapeutic compounds and compositions” (AGIOS PHARMACEUTICALS, INC., priority 2012, dated 2019):

Target: IDH2 R140Q (Homo sapiens (Human), UniProt P48735, R140Q)
Test: IDH2 R140Q enzymatic cofactor depletion assay (diaphorase/resazurin)
Format: biochemical
Details: IDH2 R140Q enzyme, one hour preincubation with compound, one hour reaction; read-out: Enz R140Q
Protocol: Compounds were assayed for IDH2 R140Q inhibitory activity through a cofactor depletion assay. […] The reaction was terminated by the addition of a second enzyme, diaphorase, and a corresponding substrate, resazurin. Diaphorase reduces resazurin to the highly fluorescent resorufin with the concomitant oxidation of NADPH to NADP, both halting the IDH2 reaction by depleting the available cofactor pool and facilitating quantitation of the amount of cofactor remaining after a specific time period through quantitative production of an easily detected fluorophore.
Specifically, into each of 12 wells of a 384-well plate, 1 μl of compound dilution series was placed, followed by the addition of 40 μl of buffer (50 mM potassium phosphate, pH 7.5; 150 mM NaCl; 10 mM MgCl2, 10% glycerol, 0.05% bovine serum albumin, 2 mM beta-mercaptoethanol) containing 1.25 μg/ml IDH2 R140Q. […] After a further one hour of incubation at room temperature, the reaction was halted and the remaining NADPH measured through conversion of resazurin to resorufin by the addition of 25 μl Stop Mix (36 μg/ml diaphorase enzyme and 60 μM resazurin; in buffer). After one minute of incubation the plate was read on a plate reader at Ex544/Em590. […]

O=C(Nc1cccc(C(F)(F)F)c1)Nc1cc(S(=O)(=O)NC2CC2)ccc1-c1ccsc1 [Compound 124, N-cyclopropyl-4-(thiophen-3-yl)-3-(3-(3-(trifluoromethyl)phenyl)ureido)benzenesulfonamide]
IC50: 0.1 to 1 µM
